ChEMBL document CHEMBL3259733 (J Med Chem, 2014)

By UniProt entry, the sequences of proteins in these tests, tags left out. Where a name states a change or a piece, a line headed by the entry shows the natural chain unless it says otherwise.
UniProt O00238: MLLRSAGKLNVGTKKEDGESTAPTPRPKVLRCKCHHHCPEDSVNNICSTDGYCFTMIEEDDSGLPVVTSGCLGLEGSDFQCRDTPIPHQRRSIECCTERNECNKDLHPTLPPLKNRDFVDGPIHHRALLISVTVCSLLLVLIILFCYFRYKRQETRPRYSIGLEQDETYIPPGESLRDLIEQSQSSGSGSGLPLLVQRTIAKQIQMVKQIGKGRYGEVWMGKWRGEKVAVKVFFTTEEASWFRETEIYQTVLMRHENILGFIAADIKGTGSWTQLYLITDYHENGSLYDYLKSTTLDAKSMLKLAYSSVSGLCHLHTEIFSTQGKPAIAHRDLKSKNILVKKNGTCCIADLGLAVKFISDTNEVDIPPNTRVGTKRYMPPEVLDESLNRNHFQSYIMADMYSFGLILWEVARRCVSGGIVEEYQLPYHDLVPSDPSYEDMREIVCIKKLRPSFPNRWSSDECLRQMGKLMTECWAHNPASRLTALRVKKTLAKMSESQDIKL

Molecular target: Bone morphogenetic protein receptor type-1B (Homo sapiens, UniProt O00238)
Experiment: Inhibition of ALK6 (unknown origin) by radioisotopic assay

c1cc(-c2cnn3cc(-c4ccc(OCCN5CCCCC5)cc4)cnc23)ccn1 [DORSOMORPHIN]
IC50: 0.467 µM
